Reference: patent US6740636B2 (priority 2000, dated 2004)

Legend:
[1] = tested on: recipient Lewis rats given donor ACI rat grafts; assay: Heterotopic heart transplant rejection model (ACI donor, Lewis recipient); format: in vivo; conditions: antagonist only, 50 mg/kg s.c. three times per day in 40% cyclodextrin; vehicle 6.8±0.8 days; p=0.0048 vs control
Source text: In this assay an increase in allograft survival time corresponds to a decrease in heart transplant rejection in the recipient Lewis rats given donor ACI rat grafts.
Adult male, specific pathogen-free ACI (RT1a) and Lewis (RT1l) rats (Charles River, Boston, Mass.) weighing 200 to 250 g were used as donors and recipients, respectively, in these studies. Vascularized cardiac allografts were heterotopically transplanted into the abdomen of recipient rats using a modification (Nisco, S. et al., (1994), supra) of the technique of Ono and Lindsay (Ono, K. et al., (1969), supra). […] Abdominal allografts were palpated on a daily basis to assess graft function, and rejection was deemed complete when palpable ventricular contractions ceased.
The transplanted hearts were evaluated daily for signs of rejection over the course of the study.

[2] = tested on: adhesion of monocytes to IL-1β-activated microvascular endothelial cells

C[C@@H]1CN(Cc2ccc(F)cc2)CCN1C(=O)COc1ccc(Cl)cc1NC(N)=O [(2R)-1-((4-chloro-2-(ureido)phenoxy)methyl)carbonyl-2-methyl-4-(4-fluorobenzyl)piperazine]
mean allograft survival time [1]: 8.8±1.2 days
RANTES-mediated and shear-resistant adhesion of monocytes to IL-1β-activated microvascular endothelial cells ([2]; human blood monocytes pre-incubated 10 minutes at 37° C., 1.5 dyn/cm^2): dose-dependently inhibited
percentage of monocytes that undergo rolling or maintain rolling interactions (inverse measure for monocyte arrest) ([2]; human blood monocytes, last 30 second interval of five minute period): dose-dependently inhibited
